This passage reports IC50 results from patent publication US20230042936A1, “PYRIDO[2,3-d]PYRIMIDIN-7(8H)-ONES AS CDK INHIBITORS” (PROSENESTAR LLC, priority 2020, published 2023).

The target of this assay is T1, DYRK2 (Homo sapiens, UniProt Q92630).
T1 sequence (Q92630 1-601): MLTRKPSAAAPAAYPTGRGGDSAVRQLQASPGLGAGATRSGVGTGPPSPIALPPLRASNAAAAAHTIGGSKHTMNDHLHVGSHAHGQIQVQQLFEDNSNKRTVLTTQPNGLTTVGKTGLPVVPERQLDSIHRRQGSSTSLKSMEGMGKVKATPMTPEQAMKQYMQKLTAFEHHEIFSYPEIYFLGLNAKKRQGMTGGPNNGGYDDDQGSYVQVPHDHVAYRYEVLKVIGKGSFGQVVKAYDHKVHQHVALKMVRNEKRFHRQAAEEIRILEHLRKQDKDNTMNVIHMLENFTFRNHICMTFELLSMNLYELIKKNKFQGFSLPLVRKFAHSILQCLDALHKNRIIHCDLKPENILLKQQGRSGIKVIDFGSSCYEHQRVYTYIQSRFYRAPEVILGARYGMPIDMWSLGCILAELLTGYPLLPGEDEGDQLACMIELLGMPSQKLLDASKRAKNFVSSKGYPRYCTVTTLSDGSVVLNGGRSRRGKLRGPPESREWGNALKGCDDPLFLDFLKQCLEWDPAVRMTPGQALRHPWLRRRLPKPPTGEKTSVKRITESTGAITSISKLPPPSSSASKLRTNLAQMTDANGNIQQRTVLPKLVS
As to the kind of experiment: Kinase profiling. The class given is biochemical.

For `CCN1CCN(Cc2ccc(Nc3ncc(F)c(-c4cc(F)c5nc(C)n(C(C)C)c5c4)n3)nc2)CC1` [Abemaciclib, reference compound], the IC50 (commonly the concentration needed to halve the response being measured) is over 50 µM.
